{"sequences": {"note": "The chains behind the UniProt entries cited, without tags or fusion partners. Where a name states a change or a piece, a line headed by the entry shows the natural chain unless it says otherwise.", "UniProt Q8N1Q1": "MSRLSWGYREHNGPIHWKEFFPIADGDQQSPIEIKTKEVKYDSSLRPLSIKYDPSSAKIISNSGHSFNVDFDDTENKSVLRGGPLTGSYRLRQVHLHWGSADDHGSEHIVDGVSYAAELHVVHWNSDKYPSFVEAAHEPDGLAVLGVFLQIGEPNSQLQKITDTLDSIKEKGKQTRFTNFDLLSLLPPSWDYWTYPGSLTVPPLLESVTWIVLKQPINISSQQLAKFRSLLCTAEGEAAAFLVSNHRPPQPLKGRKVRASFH", "UniProt O43570": "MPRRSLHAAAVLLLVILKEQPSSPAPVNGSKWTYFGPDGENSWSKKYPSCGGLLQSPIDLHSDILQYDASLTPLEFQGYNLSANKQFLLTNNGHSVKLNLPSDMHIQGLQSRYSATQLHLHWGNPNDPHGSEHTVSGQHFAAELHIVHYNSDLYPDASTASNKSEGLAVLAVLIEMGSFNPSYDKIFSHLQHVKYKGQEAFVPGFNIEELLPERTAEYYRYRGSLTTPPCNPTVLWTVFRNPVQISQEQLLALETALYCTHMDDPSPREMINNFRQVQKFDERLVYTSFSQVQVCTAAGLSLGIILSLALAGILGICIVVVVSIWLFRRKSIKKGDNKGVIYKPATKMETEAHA", "UniProt Q9Y2D0": "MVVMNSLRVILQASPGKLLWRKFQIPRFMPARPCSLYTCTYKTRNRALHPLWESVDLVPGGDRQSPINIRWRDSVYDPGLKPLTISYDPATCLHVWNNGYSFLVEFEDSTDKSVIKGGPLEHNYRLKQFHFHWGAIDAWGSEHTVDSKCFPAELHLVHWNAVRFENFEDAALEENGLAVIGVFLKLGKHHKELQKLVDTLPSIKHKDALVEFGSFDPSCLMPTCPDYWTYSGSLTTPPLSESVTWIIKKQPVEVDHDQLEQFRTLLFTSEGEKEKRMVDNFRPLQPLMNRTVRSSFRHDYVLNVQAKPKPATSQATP", "UniProt Q9ULX7": "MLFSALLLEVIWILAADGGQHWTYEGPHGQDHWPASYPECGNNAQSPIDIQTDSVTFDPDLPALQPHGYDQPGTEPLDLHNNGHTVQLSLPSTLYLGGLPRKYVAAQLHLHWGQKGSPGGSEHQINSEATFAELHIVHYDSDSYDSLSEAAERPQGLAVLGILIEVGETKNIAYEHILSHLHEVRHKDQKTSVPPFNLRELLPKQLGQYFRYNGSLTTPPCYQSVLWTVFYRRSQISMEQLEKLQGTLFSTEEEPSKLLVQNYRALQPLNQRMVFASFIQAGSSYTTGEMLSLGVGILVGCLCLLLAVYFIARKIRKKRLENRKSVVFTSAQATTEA"}, "source": "ChEMBL document CHEMBL5247599", "about": "“New β-arylchalcogeno amines with procognitive properties targeting Carbonic Anhydrases and Monoamine Oxidases” (Eur J Med Chem, 2022)", "conditions_in_all_cases": "filed as activator", "key": {"[1]": {"target": "Carbonic anhydrase 13 (Homo sapiens) (UniProt Q8N1Q1)", "experiment": "Binding affinity to human CA13 by phenol red dye based stopped flow CO2 hydration assay"}, "[2]": {"target": "Carbonic anhydrase 12 (Homo sapiens) (UniProt O43570)", "experiment": "Binding affinity to human CA12 by phenol red dye based stopped flow CO2 hydration assay"}, "[3]": {"target": "Carbonic anhydrase 9 (Homo sapiens) (UniProt Q16790)", "experiment": "Binding affinity to human CA9 by phenol red dye based stopped flow CO2 hydration assay"}, "[4]": {"target": "Carbonic anhydrase 5B, mitochondrial (Homo sapiens) (UniProt Q9Y2D0)", "experiment": "Binding affinity to human CA5b by phenol red dye based stopped flow CO2 hydration assay"}, "[5]": {"target": "Carbonic anhydrase 14 (Homo sapiens) (UniProt Q9ULX7)", "experiment": "Binding affinity to human CA14 by phenol red dye based stopped flow CO2 hydration assay"}}}
{"smiles": "N[C@H](Cc1ccccc1)C(=O)O", "note": "[D-PHENYLALANINE]", "values": [{"measurement": "Ka", "setting": "[1]", "value": 0.051, "unit": "µM"}, {"measurement": "Ka", "setting": "[2]", "value": 0.37, "unit": "µM"}, {"measurement": "Ka", "setting": "[3]", "value": 9.3, "unit": "µM"}, {"measurement": "Ka", "setting": "[4]", "value": 0.072, "unit": "µM"}, {"measurement": "Ka", "setting": "[5]", "value": 7.21, "unit": "µM"}]}
